Tested on: living and dead B16F10 cells
Assay: Fluorescence intensity measurement on living cells and dead cells
Conditions: B16F10, 5×10^4 cells/100 μL, 1 μM, excitation 488 nm, dead cells by 30% ethanol

CNc1ccc([N+](=O)[O-])c2nonc12
difference of fluorescence intensity between living cells and dead cells: small

— patent publication US20240125678A1, “COMPOUND, CELLULAR VESICLE STAIN, AND METHOD FOR FLUORESCENT STAINING OF CELLULAR VESICLES” (National University Corporation Tokai National Higher …, priority 2021, published 2024)
